Consider one compound from patent US6884418B1, “Use of ligand-mimicking agents and anti-neoplastic drugs in cancer therapy” (Berlex Laboratories, Inc., priority 1989, dated 2005).

For this experiment, the system named is SKBR3 cells. In words: MTT assay, SKBR3 cells. It counts as cell-based, human. Conditions: carboplatin 16 μg, melphalan 20 μg. As to the method: The MTT assay is generally used to assess cellular viability as a function of mitochondrial activity. The assay was used to examine effects of cisplatin with and without the c-erbB-2 monoclonal antibodies and was carried out as follows:
MTT was added for 4 hours and the crystals dissolved with isopropanol/0.04N HCI/0.3% SDS.
On the technique in general: Formazan colour is commonly taken as a measure of viable cells.

The structures appear in SMILES notation.

As for `O=P1(N(CCCl)CCCl)NCCCO1` (stereo not shown) [cytoxan], the “synergistic response of the drug combined with TAb 250” value is “failed to show a synergistic response”.
